From PubChem BioAssay AID588478 (ICCB-Longwood Screening Facility, Harvard Medical School, 2011)
This is a selection; strong and weak results do not stand in their true shares. Active and inactive are the calls of the source.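 The calls were made as follows: active = mean inhibition over replicate wells above about 20% (limit read from the data); inactive = the rest.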

By UniProt entry, the sequences of proteins in these tests, tags left out.
UniProt Q9Y5K5, whole entry: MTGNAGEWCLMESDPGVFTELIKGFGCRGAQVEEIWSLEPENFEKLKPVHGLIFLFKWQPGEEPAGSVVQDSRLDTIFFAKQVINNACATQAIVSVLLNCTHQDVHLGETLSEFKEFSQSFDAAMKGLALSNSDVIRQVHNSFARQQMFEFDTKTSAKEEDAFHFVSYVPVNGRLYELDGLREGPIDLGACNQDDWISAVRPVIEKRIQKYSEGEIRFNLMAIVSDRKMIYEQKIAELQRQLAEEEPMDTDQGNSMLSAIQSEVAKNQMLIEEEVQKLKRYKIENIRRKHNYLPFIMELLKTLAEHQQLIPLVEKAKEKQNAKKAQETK

Each molecule was assayed against Ubiquitin carboxyl-terminal hydrolase isozyme L5 (Homo sapiens) (UniProt Q9Y5K5) (assay: proteasome-bound UCH37 DUB activity blockers – biochemical, Ub-AMC cleavage, fluorescence, primary screen (AID 588478;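 also: 0% = compound-free wells with enzyme and 100% = wells lacking proteasome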)). Details: purified proteasome/UCH37, Ub-AMC cleavage fluorescence; hits give high values; concentration not given here.
Outline: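 Reagent: Ub-AMC substrate; assay system: Proteasome-associated human UCH37 deubiquitinase; controls: no-proteasome and no-compound wells; read-out: % inhibition of Ub-AMC cleavage fluorescence; timing: 30 min preincubation with enzyme, 25 min cleavage at room temperature; signal: AMC fluorescence from Ub-AMC cleavage, excitation 355 nm, emission 460 nm; buffer or medium: Tris-HCl pH 7.4 plus ovalbumin, ATP-MgCl2, DTT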

| SMILES | inhibition |
| --- | --- |
| O=C(NCC1(N2CCCCC2)CCCCC1)c1cncc(Br)c1 | inactive: 0.378% |
| CCCOc1ccc(C(=O)NCC2(N(C)C)CCCCC2)cc1OC | inactive: 3.37% |
| COc1ccc(CN(CCCl)CCCl)cc1Cl | inactive: 5.97% |
| CN(C)c1cccc(C(=O)NCC2(N3CCCCC3)CCCCC2)c1 | inactive: -14.5% |
| CC(C)c1ccc(NC2CCN(C(=O)OC(C)(C)C)CC2)cc1 | inactive: 2.74% |
| COc1cc(OC)c(C(=O)NCC2(N(C)C)CCCCC2)cc1OC | inactive: -0.94% |
| O=C(NCC1(N2CCOCC2)CCCCC1)c1cc(F)c(F)cc1Cl | inactive: -2.44% |
| O=C(NCC1(N2CCCCC2)CCCCC1)c1cccc(C(F)(F)F)c1 | inactive: 3.41% |
| CN1CCN(CCOC(=O)C(O)(c2ccccc2)c2ccccc2)CC1 | inactive: 0.424% |
| COc1ccc(NC2CCN(C(=O)OC(C)(C)C)CC2)cc1 | inactive: 4.42% |
| CC(C)c1ccc(C(=O)NCC2(N3CCOCC3)CCCCC2)cc1 | inactive: -0.0869% |
| COc1cc(C(=O)NCC2(N3CCCCC3)CCCCC2)ccc1OC(F)F | inactive: 6.68% |
| O=C(NCC1(N2CCOCC2)CCCCC1)c1cc(=O)[nH]c2ccccc12 | inactive: -3.96% |
| O=C(NCC1(N2CCCCC2)CCCCC1)c1ccc(OC(F)F)cc1 | inactive: 0.492% |
| O=C(NCC1(N2CCCCC2)CCCCC1)c1cccc([N+](=O)[O-])c1 | inactive: 3.53% |
| CSc1ccc(C(=O)NCC2(N3CCOCC3)CCCCC2)cc1 | inactive: 1.38% |
| CCN1CCC(Nc2ccc(Cl)cc2)CC1 | inactive: -0.898% |
| N#CC1(Nc2ccccc2)CCN(CCc2ccccc2)CC1 | inactive: 4.52% |
| COc1cc(C(=O)NCC2(N(C)C)CCCCC2)ccc1OC(F)F | inactive: 7.76% |
| CCOC(=O)N1CCC(Nc2cccc(C)c2)CC1 | inactive: 0.926% |
| CCOc1ccc(C)cc1CN(CCCl)CCCl | inactive: 10.5% |
| O=C(NCC1(N2CCCCC2)CCCCC1)c1ccc(F)cc1 | inactive: 0.139% |
| O=P1(N(CCCl)CCCl)SCCCS1 | inactive: 2.03% |
| CCCCOc1ccc(C(=O)NCC2(N3CCOCC3)CCCCC2)cc1 | inactive: 1.35% |

| SMILES | inhibition |
| --- | --- |
| COc1ccc(NC2CCN(CCc3ccccc3)CC2)c(OC)c1 | inactive: 0.573% |
| CCOC(=O)N1CCC(Nc2ccc(F)cc2)CC1 | inactive: 0.23% |
| O=C(NCC1(N2CCOCC2)CCCCC1)c1cc2ccccc2o1 | inactive: 3.29% |
| O=C(NCC1(N2CCCCC2)CCCCC1)c1ccc(Cl)nc1 | inactive: 4.66% |
| Cc1cc(C)cc(N(C(=O)c2ccccc2)C2CCN(C(=O)OC(C)(C)C)CC2)c1 | inactive: 2.79% |
| CCOC(=O)N1CCC(Nc2ccc(OC)cc2)CC1 | inactive: 4.11% |
| O=C(OC1CN2CCC1CC2)C1c2ccccc2Oc2ccccc21 (stereo not given) | inactive: -9.47% |
| O=C(NCC1(N2CCCCC2)CCCCC1)c1ccc(Cl)s1 | inactive: -0.227% |
| N#CC1(Nc2ccccc2)CCN(Cc2ccccc2)CC1 | inactive: 4.75% |
| COc1ccc(Cl)cc1C(=O)NCC1(N2CCOCC2)CCCCC1 | inactive: 5.29% |
| O=C(NCC1(N2CCCCC2)CCCCC1)c1ccc(=O)[nH]c1 | inactive: 0.933% |
| O=C(NCC1(N2CCCCC2)CCCCC1)c1cccs1 | inactive: 1.53% |
| COc1ccc(C(=O)NCC2(N3CCCCC3)CCCCC2)cc1 | inactive: 1.23% |
| COc1ccc(C(=O)NCC2(N3CCCCC3)CCCCC2)c(OC)c1OC | inactive: 3.1% |
| CC(C)(C)OC(=O)N1CCC(N(C(=O)c2ccccc2)c2ccc(F)cc2)CC1 | inactive: 1.39% |
| CSc1ccccc1C(=O)NCC1(N2CCCCC2)CCCCC1 | inactive: 1.67% |
| Cc1cccc(NC2(C#N)CCN(Cc3ccccc3)CC2)c1 | inactive: 1.51% |
| COc1cc(OC)cc(C(=O)NCC2(N3CCOCC3)CCCCC2)c1 | inactive: 0.871% |
| COc1cccc(C(=O)N(c2cc(C)cc(C)c2)C2CCN(C(=O)OC(C)(C)C)CC2)c1 | inactive: 6.41% |
| CN1CCC(Nc2ccc(Cl)cc2)CC1 | inactive: 2.49% |
| CCOc1ncccc1C(=O)NCC1(N2CCOCC2)CCCCC1 | inactive: 0.966% |
| CN1CCC(Nc2ccc(F)c(Cl)c2)CC1 | inactive: 4.36% |
| CCCOc1ccc(C(=O)NCC2(N(C)C)CCCCC2)cc1 | inactive: 0.763% |
| CC(C)(C)OC(=O)N1CCC(Nc2ccccc2)CC1 | inactive: 2.02% |

| SMILES | inhibition |
| --- | --- |
| O=C(O)C1(Nc2ccccc2)CCN(Cc2ccccc2)CC1 | inactive: -0.318% |
| Cc1ccccc1NC1(C#N)CCN(Cc2ccccc2)CC1 | inactive: 4.27% |
| CCN1CCC(Nc2cccc(F)c2)CC1 | inactive: 1.35% |
| O=C(NCC1(N2CCCCC2)CCCCC1)c1ccco1 | inactive: 5.27% |
| Cn1c(=O)[nH]cc(N(CCCl)CCCl)c1=O | inactive: 0.898% |
| CN(C)c1ccc(C(=O)NCC2(N3CCCCC3)CCCCC2)cc1 | inactive: 1.12% |
| COc1cc(OC)cc(C(=O)NCC2(N3CCCCC3)CCCCC2)c1 | inactive: 0.231% |
| CC(=O)N(c1ccccc1)C1CCNCC1 | inactive: 0.406% |
| Cc1ccc(NC2(C#N)CCN(Cc3ccccc3)CC2)cc1 | inactive: 0.47% |
| Cc1ccc(C(=O)NCC2(N3CCCCC3)CCCCC2)o1 | inactive: -3.43% |
| Fc1ccccc1NC1CCN(Cc2ccccc2)CC1 | inactive: -2.2% |
| c1ccc(CN2CCC(Nc3ccccc3)CC2)cc1 | inactive: 5.93% |
| CCCN1CCC(Nc2cc(OC)cc(OC)c2)CC1 | inactive: -1.42% |
| CN(C)C1(CNC(=O)c2cccc(C#N)c2)CCCCC1 | inactive: -4.39% |
| CC(C)(C)OC(=O)N1CCC(N(C(=O)c2ccccc2)c2ccc(Cl)cc2)CC1 | inactive: 3.88% |
| N#Cc1ccc(C(=O)NCC2(N3CCCCC3)CCCCC2)cc1 | inactive: 1.64% |
| CCOC(=O)N1CCC(Nc2ccc(C)cc2)CC1 | inactive: -0.188% |
| O=C(OC1CN2CCC1CC2)C1c2ccccc2C=Cc2ccccc21 (stereo not given) | inactive: 3.22% |
| CCc1cc(C(=O)NCC2(N3CCCCC3)CCCCC2)sc1C | inactive: 6.33% |
| O=C(NCC1(N2CCOCC2)CCCCC1)c1cc(Br)ccc1Cl | inactive: 3.23% |
| COc1cc(C(=O)NCC2(N3CCOCC3)CCCCC2)cc(OC)c1C | inactive: 2.41% |
| COc1ccc(C(=O)NCC2(N3CCOCC3)CCCCC2)cc1OC | inactive: 2.63% |
